Data from publication PMC9409351, “Differential Ganglioside and Cholesterol Depletion by Various Cyclodextrin Derivatives and Their Effect on Synaptosomal Glutamate Release” (International Journal of Molecular Sciences, 2022).

Tests used:
[1] = system: rat cerebral synaptosomes; assay: Resazurin reduction viability assay; type: cell-based; details: up to 100 mM
Description: Adult male Wistar rats purchased from Toxi-Coop Ltd. (Budapest, Hungary) were used in the experiments. Cerebral synaptosomes were prepared according to Modi and co-workers with the following modifications. Animals were decapitated and the brain was removed rapidly. Isotonic sucrose buffer (0.32 M sucrose, 4 mM HEPES-NaOH, pH 7.4) was used to homogenize the cerebrum with a Potter S Homogenizer (B. Braun, Melsungen, Germany) with 15 strokes at 1000 rpm. The homogenate was centrifuged (1500× g, 10 min, 4 °C) and the pellet was resuspended in sucrose buffer and centrifuged with the same parameters again. The two supernatants were combined and centrifuged (20,000× g, 10 min, 4 °C) to pellet the crude synaptosomes. […] Synaptosomes were stored frozen using cryopreservation buffer and the slow freezing method to preserve their physiological state and integrity. Briefly, synaptosome pellets were resuspended in isotonic sucrose buffer containing 10% DMSO (v/v) and 10% FBS (v/v). […] Viability of the rat cerebral synaptosomes was measured by the Resazurin Cell Viability Kit (Cell Signaling Technology Inc., Danvers, MA, USA) with minor modifications. […] Fluorescence of the supernatant was measured with a Varioskan LUX multimode microplate reader (Thermo Fisher Scientific) at 530/590 nm. Viability of the CD-treated synaptosomes was calculated as the percentage of vehicle-treated control synaptosomes.

[2] = system: rat cerebral synaptosomes; assay: Membrane integrity by LDH release assay; type: cell-based; details: 100 mM
Description: Adult male Wistar rats purchased from Toxi-Coop Ltd. (Budapest, Hungary) were used in the experiments. Cerebral synaptosomes were prepared according to Modi and co-workers with the following modifications. Animals were decapitated and the brain was removed rapidly. Isotonic sucrose buffer (0.32 M sucrose, 4 mM HEPES-NaOH, pH 7.4) was used to homogenize the cerebrum with a Potter S Homogenizer (B. Braun, Melsungen, Germany) with 15 strokes at 1000 rpm. The homogenate was centrifuged (1500× g, 10 min, 4 °C) and the pellet was resuspended in sucrose buffer and centrifuged with the same parameters again. The two supernatants were combined and centrifuged (20,000× g, 10 min, 4 °C) to pellet the crude synaptosomes. […] Synaptosomes were stored frozen using cryopreservation buffer and the slow freezing method to preserve their physiological state and integrity. Briefly, synaptosome pellets were resuspended in isotonic sucrose buffer containing 10% DMSO (v/v) and 10% FBS (v/v). […] The membrane integrity of the synaptosomes was measured by the CytoTox-ONE Homogeneous Membrane Integrity Assay (Promega, Madison, WI, USA) with minor modifications. […] The LDH activity was then assessed according to the manufacturer’s instructions and the fluorescence was measured by a Varioskan LUX multimode microplate reader (Thermo Fisher Scientific) at 530/590 nm.

In the case of “(2-hydroxypropyl)-alpha-cyclodextrin [HPACD]”, the Effect on viability [1] is reported as “no effect on the viability” and the “LDH release at highest concentration” value [2] is reported as “only a mild increase in the LDH release”.
